Tests used:
[1] = Crystal; DTA
[2] = Molar enthalpy of transition or fusion; settings: Crystal; DSC
[3] = xn = mol fraction of the nth substance listed; settings: 101 kPa, Liquid, Vibrating tube method

CCC[N+](CCC)(CCC)CCC.[Cl-] [tetrapropylammonium chloride]
Settings | Molar enthalpy of transition or fusion [kcal/mol] | Normal melting temperature [°C]
[1] | – | 229.92
[2] | 15.9 | –

CCC[N+](CCC)(CCC)CCC.[Cl-] [tetrapropylammonium chloride] + O
mass density [kg/m3], [3]
Settings | 298.15 K | 308.15 K | 318.15 K | 328.15 K | 338.15 K | 348.15 K | 358.15 K
x1 = 0.013 | 995.5 | 991.5 | 986.9 | 979.4 | – | – | –
x1 = 0.0306 | 996.2 | 991 | 985.4 | 979.3 | 972.6 | 963.5 | 941.1
x1 = 0.0556 | 998.5 | 991.9 | 985.1 | 978.2 | 971.1 | 963.9 | –
x1 = 0.0934 | 997.2 | 990 | 982.8 | 975.5 | 968.2 | 960.8 | 953.3
x1 = 0.1574 | 990.1 | 983.3 | 976.4 | 969.6 | 962.6 | 955.6 | 948.6

— the NIST ThermoML archive (doi:10.1016/j.fluid.2017.04.007)
